Measured values as given in PMC9287434, “Inhibition of NMDA receptors through a membrane-to-channel path” (Nature Communications, 2022).

Chains of the proteins cited; added tags and fusions are not shown. Residues count along the entry.
UniProt Q00959, 23-1464 A570W: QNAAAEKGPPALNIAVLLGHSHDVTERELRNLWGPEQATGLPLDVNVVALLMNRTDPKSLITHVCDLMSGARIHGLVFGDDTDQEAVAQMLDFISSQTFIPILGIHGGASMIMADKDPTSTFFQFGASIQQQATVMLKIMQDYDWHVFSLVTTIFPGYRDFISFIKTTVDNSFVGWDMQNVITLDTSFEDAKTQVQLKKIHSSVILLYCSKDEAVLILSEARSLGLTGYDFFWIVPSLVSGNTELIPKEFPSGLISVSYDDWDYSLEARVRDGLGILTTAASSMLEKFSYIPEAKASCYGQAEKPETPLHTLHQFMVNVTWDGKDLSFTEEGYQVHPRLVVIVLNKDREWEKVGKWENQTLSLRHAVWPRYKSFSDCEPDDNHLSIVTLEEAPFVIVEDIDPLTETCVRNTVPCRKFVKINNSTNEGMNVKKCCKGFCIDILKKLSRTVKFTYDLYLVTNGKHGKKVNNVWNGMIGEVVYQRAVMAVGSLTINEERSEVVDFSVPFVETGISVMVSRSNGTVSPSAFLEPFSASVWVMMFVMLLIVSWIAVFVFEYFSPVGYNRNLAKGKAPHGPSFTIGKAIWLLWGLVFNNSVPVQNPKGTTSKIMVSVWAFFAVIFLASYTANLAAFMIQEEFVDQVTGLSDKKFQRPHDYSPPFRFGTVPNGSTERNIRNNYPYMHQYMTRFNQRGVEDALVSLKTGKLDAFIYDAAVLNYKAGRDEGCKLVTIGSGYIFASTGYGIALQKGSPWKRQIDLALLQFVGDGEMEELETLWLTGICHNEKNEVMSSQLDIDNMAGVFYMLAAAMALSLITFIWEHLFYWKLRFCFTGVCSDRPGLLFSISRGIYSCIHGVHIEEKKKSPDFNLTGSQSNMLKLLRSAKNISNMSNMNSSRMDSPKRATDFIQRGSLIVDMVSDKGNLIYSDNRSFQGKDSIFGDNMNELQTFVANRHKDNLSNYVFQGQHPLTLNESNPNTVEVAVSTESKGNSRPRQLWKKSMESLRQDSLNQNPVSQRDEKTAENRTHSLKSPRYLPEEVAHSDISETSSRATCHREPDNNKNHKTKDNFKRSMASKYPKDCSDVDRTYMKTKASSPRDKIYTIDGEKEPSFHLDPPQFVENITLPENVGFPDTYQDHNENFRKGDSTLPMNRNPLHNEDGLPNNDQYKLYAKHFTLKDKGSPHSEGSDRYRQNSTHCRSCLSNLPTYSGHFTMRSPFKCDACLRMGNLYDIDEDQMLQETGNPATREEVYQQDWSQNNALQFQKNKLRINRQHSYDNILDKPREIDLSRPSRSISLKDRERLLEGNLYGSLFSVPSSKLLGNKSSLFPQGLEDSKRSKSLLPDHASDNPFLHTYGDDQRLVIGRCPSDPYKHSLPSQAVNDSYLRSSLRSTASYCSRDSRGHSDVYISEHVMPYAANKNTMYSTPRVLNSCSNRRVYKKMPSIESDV

Biological target: GluN1/2A(A570W) receptors (Rattus norvegicus, UniProt P35439+Q00959, A570W)
Assay: Traditional memantine IC50, GluN1/2A(A570W)

Structure (SMILES): CC12CC3CC(C)(C1)CC(N)(C3)C2 [memantine]
- IC50: 0.933 ± 0.144 µM
